# Values of other authors, collected in PMC5807063 (Science (New York, N.Y.), 2017).
# Molecular target: T1, purified HNE (human neutrophil elastase) (Homo sapiens, UniProt P08246)
# T1 sequence (P08246 30-267): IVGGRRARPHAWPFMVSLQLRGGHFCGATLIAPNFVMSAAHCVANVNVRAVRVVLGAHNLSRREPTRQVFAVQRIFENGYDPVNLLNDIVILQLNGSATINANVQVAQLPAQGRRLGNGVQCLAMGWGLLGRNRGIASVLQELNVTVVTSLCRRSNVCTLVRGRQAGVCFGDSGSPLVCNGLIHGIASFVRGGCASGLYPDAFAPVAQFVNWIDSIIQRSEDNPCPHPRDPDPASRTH
# Details: read-out: reported Ki; cited from earlier work
substance,measurement,value
BAY 85-8501 [compound 54],Ki,0.08 nM
